Experimental data: patent publication US20140127174A1 (ZEALAND PHARMA A S, published 2014)

How the values were obtained:
[1] = target: human glucagon receptor (Glucagon-R) (human) (UniProt P47871); assay: cell-based or functional assay
[2] = target: human glucagon-like peptide 1 receptor (GLP-1-R) (human) (UniProt P43220); assay: cell-based or functional assay

Exendin-4 (from UniProt P26349) (peptide)
EC50 of cAMP formation in HEK293 cells expressing human Glucagon-R [1]: > 1000 nM | EC50 of cAMP formation in HEK293 cells expressing human GLP-1-R [2]: 0.02 nM
